This note sets out measurements from patent US20040162235A1, “Delivery of siRNA to cells using polyampholytes” (priority 2003, published 2004).

Where two headings read alike, the source gives them in different places.

A short description of this series: Red blood cell (RBC) hemolysis assay. Particulars: 37° C., read-out: Percent Hemolysis. Type of series: cell-based. The procedure: C. […] RBCs were harvested by centrifuging whole blood for 4 min. They were washed three times with 100 mM dibasic sodium phosphate at the desired pH, and resuspended in the same buffer to yield the initial volume. They were diluted 10 times in the same buffer, and 200 μL of this suspension was used for each tube. This yields […] RBCs per tube. Each tube contained 800 μL of buffer, 200 μL of the RBC suspension, and the peptide with or without polymer. Each sample was then repeated to verify reproducibility. The tubes were incubated for 30 minutes in a 37° C. water bath. They were spun for 5 min at full speed in the microcentrifuge. Lysis was determined by measuring the absorbance of the supernatant at 541 nm, reflecting the amount of hemoglobin that had been released into the supernatant. Percent hemolysis was calculated assuming 100% lysis to be measured by the hemoglobin released by the red blood cells in water; controls of RBCs in buffer with no peptide were also run.

Consider `CC[C@H](C)[C@H](NC(=O)CNC(=O)CCC(=O)O)C(=O)NCC(=O)N[C@@H](C)C(=O)N[C@H](C(=O)N[C@@H](CC(C)C)C(=O)N[C@@H](CCCCNC(=O)CCC(=O)O)C(=O)N[C@H](C(=O)N[C@@H](CC(C)C)C(=O)N[C@H](C(=O)N[C@H](C(=O)NCC(=O)N[C@@H](CC(C)C)C(=O)N1CCC[C@H]1C(=O)N[C@@H](C)C(=O)N[C@@H](CC(C)C)C(=O)N[C@H](C(=O)N[C@@H](CO)C(=O)N[C@@H](Cc1c[nH]c2ccccc12)C(=O)N[C@H](C(=O)N[C@@H](CCCCNC(=O)CCC(=O)O)C(=O)N[C@@H](CCCNC(=N)N)C(=O)N[C@@H](CCCCNC(=O)CCC(=O)O)C(=O)N[C@@H](CCCNC(=N)N)C(=O)N[C@@H](CCC(N)=O)C(=O)N[C@@H](CCC(N)=O)C(=O)O)[C@@H](C)CC)[C@@H](C)CC)[C@@H](C)O)[C@@H](C)O)C(C)C)C(C)C` [Succinyl-Melittin], for which the hemolysis turned out to be 5% (pH 5.4, 30 minutes) and 2% (pH 7.5, 30 minutes).
